# From patent US20070036775A1, “Method of modulating or examining Ku70 levels in cells” (priority 2001, published 2007)
# Tested on: HEK293T cells
# Test: Bak-induced cell death in HEK293T cells
# Assay type: cell-based
# Details: HEK293T cells co-transfected with pcDNA3-Bak
# Method: FIG. 1. […] FIG. 1A: Scheme of Ku70 full-length, Bax-suppressor clones (clone 1 and 2) obtained by yeast-based functional screening using pGilda-Bax plasmid for Bax expression as reported (Xu, et al., 2000). FIG. 1B: Ku70 suppresses Bax-induced apoptosis in HEK293T cells as well as XIAP. 10^6 cells were transfected with 1.0 μg of pcDNA3 (Control) or pcDNA3-Bax (Bax) together with 0.5, 1.0, or 2.0 μg of pCMV-2B-Ku70 wt (Ku70 wt) or pcDNA3-Myc-XIAP (XIAP). In “Bax+Vector” group, 1.0 μg pcDNA3-Bax and 2 ug of pCMV-2B were used, respectively (Control and Bax+Vector). All the cells were also co-transfected with 0.5 μg pEGFP for the marking of transfected cells. Apoptosis in the transfected cells was analyzed 24 hours following transfection with Hoechst dye staining of the nucleus as described in Experimental Procedure. FIG. 1C: Time course of the suppression of Bax-induced apoptosis by Ku70 and XIAP in HEK293T cells. […] Apoptosis in the transfected cells was analyzed at 24 hours (Control) or the indicated time points following transfection. […] After 24 hours, apoptotic cells were counted as described in FIG. 1B. […] The number of apoptotic cells was determined as described in FIG. 1B. […] Apoptosis in the transfected cells was analyzed at the indicated periods following transfection as described in FIG. 1C. […]
substance,measurement,value
"Ku70: human full length Ku70, 70 kDa subunit of Ku-complex (609 amino acids), expressed from pCMV-2B plasmid",effect on Bak-induced cell death,could not suppress Bak-induced cell death
